Measurements reported in patent US20260125400A1, “TYK2 DEGRADERS AND USES THEREOF” (Kymera Therapeutics, Inc., priority 2023, published 2026).
Read-outs that look alike come from different tables or passages of the source.

Sequences of proteins named here, by UniProt entry; tags and fusion partners are left off.
UniProt P29597, whole entry: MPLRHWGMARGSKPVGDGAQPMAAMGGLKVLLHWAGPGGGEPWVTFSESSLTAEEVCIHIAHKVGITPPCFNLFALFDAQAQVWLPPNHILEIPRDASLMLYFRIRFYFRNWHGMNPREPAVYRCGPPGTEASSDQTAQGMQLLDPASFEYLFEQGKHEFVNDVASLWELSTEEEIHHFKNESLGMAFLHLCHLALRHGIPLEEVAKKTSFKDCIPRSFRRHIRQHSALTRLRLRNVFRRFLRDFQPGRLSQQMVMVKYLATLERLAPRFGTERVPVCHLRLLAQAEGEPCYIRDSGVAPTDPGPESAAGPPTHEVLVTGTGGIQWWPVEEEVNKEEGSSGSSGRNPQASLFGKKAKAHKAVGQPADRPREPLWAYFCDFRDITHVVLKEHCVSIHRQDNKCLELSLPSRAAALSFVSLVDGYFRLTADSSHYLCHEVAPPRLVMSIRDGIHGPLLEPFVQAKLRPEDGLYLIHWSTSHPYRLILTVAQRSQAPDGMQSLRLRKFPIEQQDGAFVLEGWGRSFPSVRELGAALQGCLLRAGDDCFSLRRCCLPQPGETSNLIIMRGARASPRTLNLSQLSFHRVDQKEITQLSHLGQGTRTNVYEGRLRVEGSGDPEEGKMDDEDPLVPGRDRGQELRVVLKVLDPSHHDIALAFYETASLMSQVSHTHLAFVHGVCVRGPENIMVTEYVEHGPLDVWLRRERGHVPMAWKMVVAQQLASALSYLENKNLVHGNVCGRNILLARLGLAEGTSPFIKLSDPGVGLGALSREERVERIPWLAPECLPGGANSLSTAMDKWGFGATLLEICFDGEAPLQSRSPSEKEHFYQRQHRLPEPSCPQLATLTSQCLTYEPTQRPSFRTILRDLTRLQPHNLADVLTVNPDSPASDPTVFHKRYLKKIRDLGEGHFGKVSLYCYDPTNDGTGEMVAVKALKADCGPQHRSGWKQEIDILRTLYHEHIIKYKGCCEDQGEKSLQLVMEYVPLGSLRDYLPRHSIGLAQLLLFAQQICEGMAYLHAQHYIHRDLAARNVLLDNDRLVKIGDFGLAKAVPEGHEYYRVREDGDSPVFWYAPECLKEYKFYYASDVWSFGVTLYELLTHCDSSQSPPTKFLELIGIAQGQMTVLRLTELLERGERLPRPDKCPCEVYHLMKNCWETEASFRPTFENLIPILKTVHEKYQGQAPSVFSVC

Molecular target: TYK2 (Homo sapiens, UniProt P29597)
Test: TYK2 MSD degradation in OCI-LY10 cells
Conditions: for TYK2 MSD OCI-LY10 Dmax %: 4 to 24 hours incubation
[1] = TYK2 degradation in OCI-LY10 cells
[2] = read-out: TYK2 MSD OCI-LY10 Rel-DC50, TYK2 degradation in OCI-LY10 cells, 4 to 24 hours incubation
[3] = read-out: TYK2 MSD OCI-LY10 Rel-DC50, OCI-LY10 cells, 4 to 24 hours incubation

Compound	TYK2 MSD OCI-LY10 Dmax % [1]	DC50 [2] [nM]	TYK2 MSD OCI-LY10 Dmax % (OCI-LY10 cells)	DC50 [3] [nM]
CNc1cc(N2CCc3c(-c4cnc(CN5CCC6(CCN(C(=O)c7cc(C)c(Cl)c(N8CCC(=O)NC8=O)c7)CC6)C(F)(F)C5)cn4)cccc32)nn2c(C(=O)N[C@@H]3CC[C@H]3OC)cnc12	B (B (90 to >75%))	< 10	–	–
CNc1cc(N2CCc3c(CN4CC[C@@H](N5CCC6(CCN(C(=O)c7ccc(Cl)c(N8CCC(=O)NC8=O)c7)CC6)CC5)C(F)(F)C4)cc(F)cc32)nn2c(C(=O)N[C@@H]3CC[C@H]3OC)cnc12	A (A (>90%))	< 1	–	–
COC1(c2cc(-c3ccc(CN4CCC5(CCN(C(=O)c6ccc(Cl)c(N7CCC(=O)NC7=O)c6)CC5)C(F)(F)C4)nc3)cc(-c3cn(C)c4cnc(NC(C)=O)cc34)n2)CCOC1 (stereo not shown)	A (A (>90%))	< 1	–	–
COC1(c2cc(C)cc(-c3cn(CC4CCN(CC5CCN(c6ccc(C(=O)NC7CCC(=O)NC7=O)c(F)c6)CC5)CC4)c4cnc(NC(C)=O)cc34)n2)CCOC1 (stereo not shown)	D (D (<50%))	> 100	–	–
CNc1cc(N2CCc3c(CN4CCC(OC5CC6(CCN(C(=O)c7cc(N8CCC(=O)NC8=O)c(Cl)c(C)n7)CC6)C5)CC4)cccc32)nn2c(C(=O)N[C@@H]3CC[C@H]3OC)cnc12	A (A (>90%))	< 1	–	–
CNc1cc(N2CCc3c(-c4ccc(CN5CC[C@@H](N6CCN(c7ccc8c(c7)n(C)c(=O)n8C7CCC(=O)NC7=O)CC6)C(F)(F)C5)cn4)cccc32)nn2c(C(=O)N[C@@H]3C[C@@H]3F)cnc12 (stereo partly shown)	B (B (90 to >75%))	< 10	–	–
CNc1cc(N2CCc3c(CN4CCC(N5CC6(CCN(c7ccc8c(c7)n(C)c(=O)n8C7CCC(=O)NC7=O)CC6)C5)C(F)(F)C4)cccc32)nn2c(C(=O)NC3CC3)cnc12 (stereo not shown)	B (B (90 to >75%))	< 1	–	–
CNc1cc(N2CCc3c(-c4ccc(CN5CCC(COc6ccc(C7CCC(=O)NC7=O)c(Cl)c6)CC5)cn4)cccc32)nn2c(C(=O)N[C@@H]3C[C@@H]3F)cnc12 (stereo partly shown)	–	–	D (D (<50%))	> 100
CNc1cc(N2CCc3c(-c4ccc(CN5CC6(CCN(C(=O)c7ccc(Cl)c(N8CCC(=O)NC8=O)c7)CC6(F)F)C5)cn4)cccc32)nn2c(C(=O)N[C@@H]3CC[C@H]3F)cnc12	–	–	B (B (90 to >75%))	< 1
CNc1cc(N2CCc3c(CN4CCC(N5CCC6(CCN(C(=O)c7cc(Cl)c(C)c(N8CCC(=O)NC8=O)c7)CC6)CC5)C(F)(F)C4)cccc32)nn2c(C(=O)N[C@@H]3CC[C@H]3OC)cnc12 (stereo partly shown)	–	–	A (A (>90%))	< 1
CNc1cc(N2CCc3c(-c4ccc(CN5CC6(CCN(C(=O)c7ccc(Cl)c(N8CCC(=O)NC8=O)c7)CC6(F)F)C5)cn4)cccc32)nn2c(C(=O)N[C@H]3CC3(F)F)cnc12	–	–	B (B (90 to >75%))	< 10
CNc1cc(N2CCc3c2cccc3C23CC(CN4CC5(CCN(C(=O)c6cc(N7CCC(=O)NC7=O)c(Cl)c(C)n6)CC5(F)F)C4)(C2)C3)nn2c(C(=O)N[C@@H]3CC[C@H]3OC)cnc12	A (A (>90%))	< 1	–	–
CNc1cc(N2CCc3c(CN4CCC5(CCN(CC6CCN(C(=O)c7cc(C)c(Cl)c(N8CCC(=O)NC8=O)c7)CC6)CC5)C(F)(F)C4)cccc32)nn2c(C(=O)N[C@@H]3CC[C@H]3OC)cnc12	A (A (>90%))	< 1	–	–
CNc1cc(N2CCc3c(-c4ncc(CN5CC6(CCN(C(=O)c7cc(N8CCC(=O)NC8=O)c(C)cn7)CC6(F)F)C5)cc4F)cccc32)nn2c(C(=O)N[C@@H]3CC[C@H]3OC)cnc12	A (A (>90%))	< 1	–	–
CNc1cc(N2CCc3c(-c4cc(CN5CCN(c6ccc7c(N8CCC(=O)NC8=O)cncc7c6)CC5)ccn4)cccc32)nn2c(C(=O)NC3CC3)cnc12	C (C (75 to 50%))	< 10	–	–
CNc1cc(N2CCc3c(-c4ccc(CN5CCN(CC#Cc6cccc(N7CCC(=O)NC7=O)c6C)CC5)cn4)cccc32)nn2c(C(=O)N[C@@H]3C[C@@H]3F)cnc12	–	–	C (C (75 to 50%))	> 100
CNc1cc(N2CCc3c(-c4ccc(CN5CCN(CCc6ccc(Cl)c(C7CCC(=O)NC7=O)c6)CC5)cn4)cccc32)nn2c(C(=O)N[C@@H]3C[C@@H]3F)cnc12 (stereo partly shown)	D (D (<50%))	< 10	–	–
CNc1cc(N2CCc3c(CN4CCC(N5CC6(CC(N7CCN(c8ccc9c(c8)n(C)c(=O)n9C8CCC(=O)NC8=O)CC7)C6)C5)C(F)(F)C4)cccc32)nn2c(C(=O)N[C@@H]3C[C@@H]3F)cnc12 (stereo partly shown)	B (B (90 to >75%))	< 1	–	–
CNc1cc(N2CCc3c(-c4ccc(CN5CC6(CCN(C(=O)c7ccc(Cl)c(N8CCC(=O)NC8=O)c7)CC6(F)F)C5)cn4)cccc32)nn2c(C(=O)N[C@H]3C[C@H](F)C3)cnc12	–	–	B (B (90 to >75%))	< 1
CNc1cc(N2CCc3c(CN4CCC(N5CCC6(CCN(C(=O)c7ccc(OC)c(N8CCC(=O)NC8=O)c7)CC6)CC5)C(F)(F)C4)cccc32)nn2c(C(=O)N[C@@H]3C[C@@H]3F)cnc12 (stereo partly shown)	A (A (>90%))	< 1	–	–
CO[C@@]1(c2cc(-c3ccc(CN4CCC5(CN(C(=O)c6ccc(Cl)c(N7CCC(=O)NC7=O)c6)C5)C(F)(F)C4)cn3)cc(-c3cn(C)c4cnc(NC(C)=O)cc34)n2)CCOC1	B (B (90 to >75%))	< 1	–	–
CNc1cc(N2CCc3c(N4CCC(CN5CC6(CCN(C(=O)c7cc(N8CCC(=O)NC8=O)c(Cl)c(C)n7)CC6(F)F)C5)CC4)cccc32)nn2c(C(=O)N[C@@H]3CC[C@H]3OC)cnc12	B (B (90 to >75%))	< 1	–	–
CNc1cc(N2CCc3c(CN4CCC(N5CCC(CC6CCN(C(=O)c7cc(Cl)c(C)c(N8CCC(=O)NC8=O)c7)CC6)CC5)C(F)(F)C4)cccc32)nn2c(C(=O)N[C@@H]3CC[C@H]3OC)cnc12 (stereo partly shown)	A (A (>90%))	< 10	–	–
CNc1cc(N2CCc3c(-c4ncc(CN5CC6(CCN(C(=O)c7cc(C)c(Cl)c(N8CCC(=O)NC8=O)c7)CC6(F)F)C5)cc4F)cccc32)nn2c(C(=O)N[C@@H]3CC[C@H]3F)cnc12	A (A (>90%))	< 1	–	–
CNc1cc(N2CCc3c(-c4ccc(OC5CC6(CCN(Cc7ccc(Cl)c(N8CCC(=O)NC8=O)c7)CC6)C5)cn4)cccc32)nn2c(C(=O)N[C@@H]3C[C@@H]3F)cnc12	D (D (<50%))	> 100	–	–
CNc1cc(N2CCc3c(-c4ncc([C@@H](C)N5CC6(CCN(C(=O)c7ccc(Cl)c(N8CCC(=O)NC8=O)c7)CC6(F)F)C5)cc4F)cccc32)nn2c(C(=O)N[C@@H]3CC[C@H]3OC)cnc12	A (A (>90%))	< 1	–	–
CNc1cc(N2CCc3c([C@@H]4CCN(CC5CCN(c6ccc7c(c6)n(C)c(=O)n7C6CCC(=O)NC6=O)CC5)C4)cccc32)nn2c(C(=O)NC3CC3)cnc12 (stereo partly shown)	C (C (75 to 50%))	< 1	–	–
CNc1cc(N2CCc3c(-c4ccc(CN5CC6(CCN(C(=O)c7cc(C)c(Cl)c(N8CCC(=O)NC8=O)c7)CC6(F)F)C5)cn4)cccc32)nn2c(C(=O)N[C@@H]3CC[C@H]3OC)cnc12	A (A (>90%))	< 1	–	–
CO[C@@]1(c2cc(CN3CCC(CCN4CCN(C(=O)c5ccc(Cl)c(N6CCC(=O)NC6=O)c5)CC4)CC3)cc(-c3cn(C)c4cnc(NC(C)=O)cc34)n2)CCOC1	D (D (<50%))	> 100	–	–
